Literature values, collected in patent publication US20180291335A1, “MODIFIED POLYNUCLEOTIDES FOR ALTERING CELL PHENOTYPE” (ModernaTX, Inc., priority 2012, published 2018).

Conditions: in vivo, iv; cited from earlier work

## penta[3-(1-laurylaminopropionyl)]-triethylenetetramine hydrochloride [Compound 98N12-5]
  distribution of the formulation to the liver: greater than 90%
